Values joined by “and” are separate entries in the source; they are usually repeats but may differ in a detail not shown here. Identical values can stand only once.
Key:
[1] = ThT assay of fibrillization kinetics, peptides alone; type: physicochemical; conditions: 20 μM peptide, 150 mM NaCl
Description: The time course of fibrillization in solution was monitored using 100–200 μL amylin samples, contained in white polystyrene clear bottom 96-well plates (Corning Inc., Corning, NY). Plates were covered with a clear polyester sealing tape (Fisher Scientific, Agawam, MA) to prevent evaporation. Stock solutions of 1.1 mM WT-amylin and inhibitor peptides were prepared in 100% DMSO, which dissolves and disaggregates amylin fibrils, and were stored at −80°C when not in use. Starting from the 1.1 mM stock solutions in 100% DMSO, samples for fibrillization reactions were prepared to contain 20 μM amylin and 10 μM ultrapure ThT, in 20 mM sodium phosphate buffer, pH 7.4, and a final DMSO concentration of 2% (v/v). For experiments using larger 400 μM concentrations of Arg-2 and Mem-T, the solutions were prepared by diluting 100% DMSO stock solutions of 20 mM peptide to a final DMSO concentration of 2% (v/v). Amylin was the last component added to the samples for the kinetic reactions, in order to reduce the dead time for the experiments. The plates were incubated at 25°C without agitation. Fluorescence intensity was recorded at 2 min intervals with excitation at 440 nm and emission at 490 nm on a Fluoroskan Ascent 2.5 fluorescence plate reader. Fibrillization reactions for the peptides alone were performed in triplicate and for analog-peptide inhibition of WT-amylin in duplicate, to estimate experimental uncertainties in kinetic parameters.

[2] = TEM of aggregates formed by peptides alone; type: physicochemical; conditions: 80 μM peptide, 2 days, 20 mM phosphate pH 7.4, 37°C, no agitation
Description: Samples containing 80 μM concentrations of WT-amylin and the three analogs were incubated without agitation at a temperature of 37°C in 20 mM phosphate buffer (pH 7.4). For the inhibition reactions, samples contained WT-amylin at an 80 μM concentration, together with 160 μM of Arg-1, Arg-2, or Mem-T analogs. Aliquots from the reactions were removed after 2 days for TEM imaging. The aliquots were blotted onto carbon-coated 400-mesh Maxtaform copper grids (Ted Pella Inc. Redding, CA) for 1–3 min, followed by negative staining with 1% uranyl acetate. TEM images were recorded on an FEI Tecnai G^2 Spirit BioTwin transmission electron microscope equipped with an AMT XR-40 camera.

[3] = system: MIN6 mouse model of pancreatic β-cells; conditions: 24 h, 160 μM
Description: The stock solutions were diluted with FBS-free DMEM and sonicated continuously for 5 min at 75% amplitude before use. FBS was subsequently added to a concentration of 15% (v/v), giving final amylin concentrations of 40, 80, and 160 μM. The final DMSO concentration for all cytotoxicity experiments was 1% (v/v).
Cytotoxicity was measured using the mouse insulinoma 6 (MIN6) cell line model of β-pancreatic cells, which were a gift from Dr. Anil Rustgi (University of Pennsylvania). Cells were seeded at a density of 20,000 per 100 μL in black clear-bottom 96-well plates. The cells were grown in DMEM with 15% FBS, 25 mM glucose, 2 mM L-glutamine, […] sodium pyruvate, 55 μM β-mercaptoethanol, 1000 units/mL penicillin, and 100 μg/mL streptomycin, for 20 h at 37°C in a humidified incubator with 5% CO2. […] The cells were incubated for another 24 h followed by the addition of 10% (v/v) of the redox indicator dye Alamar Blue at the concentration supplied by the manufacturer (Invitrogen). Fluorescence, due to the reduction of Alamar Blue by viable cells, was measured after 6 h, using excitation and emission wavelengths of 544 and 590 nm, respectively. Cell viability was calculated from the ratio of Alamar Blue fluorescence in treated to untreated cells. Uncertainties were calculated as the SEMs of triplicate measurements.

[4] = design: method as in 2 sources, ref 21 = [21]; PMID 23016872; doi:10.1021/bi300574r; 21 Marek P. J. Patsalo V. Green D. F. Raleigh D. P. Ionic strength effects on amyloid formation by amylin are a complicated interplay among debye screening, ion selectivity, and hofmeister effects Bio ||| ref 7 = [7]; PMID 22206987; doi:10.1016/j.jmb.2011.12.032; 7 Cao P. Tu L.-H. Abedini A. Sensitivity of amyloid formation by human islet amyloid polypeptide to mutations at residue 20 Journal of Molecular Biology 2012 421 2-3 282 295 10.1016/j.jmb.2011.12.032; conditions: absence of inhibitors; cited from earlier work
Excerpt: In type 2 diabetes, the positively charged 37-residue hormone amylin misfolds into cationic fibrils which have been implicated in the destruction of the pancreatic β-cells that make insulin and amylin, thus contributing to pathology. Amylin is a particularly favorable system for investigating the roles of charges in fibrillization, since the core of the intermolecular β-sheet fibril structure has only one pH-titratable group, His18 [9].

## CC[C@H](C)[C@H](NC(=O)[C@H](C)NC(=O)CNC(=O)[C@H](Cc1ccccc1)NC(=O)[C@H](CC(N)=O)NC(=O)[C@H](CC(N)=O)NC(=O)[C@H](CO)NC(=O)[C@H](CO)NC(=O)[C@H](Cc1c[nH]cn1)NC(=O)[C@@H](NC(=O)[C@H](CC(C)C)NC(=O)[C@H](Cc1ccccc1)NC(=O)[C@H](CC(N)=O)NC(=O)[C@H](C)NC(=O)[C@H](CC(C)C)NC(=O)[C@H](CCCNC(=N)N)NC(=O)[C@H](CCC(N)=O)NC(=O)[C@@H](NC(=O)[C@H](C)NC(=O)[C@@H]1CSSC[C@H](NC(=O)[C@@H](N)CCCCN)C(=O)N[C@@H](CC(N)=O)C(=O)N[C@@H]([C@@H](C)O)C(=O)N[C@@H](C)C(=O)N[C@@H]([C@@H](C)O)C(=O)N1)[C@@H](C)O)C(C)C)C(=O)N[C@@H](CC(C)C)C(=O)N[C@@H](CO)C(=O)N[C@@H](CO)C(=O)N[C@H](C(=O)N[C@@H](CC(N)=O)C(=O)N[C@H](C(=O)NCC(=O)N[C@@H](CO)C(=O)N[C@@H](CC(N)=O)C(=O)N[C@H](C(=O)N[C@@H](Cc1ccc(O)cc1)C(N)=O)[C@@H](C)O)C(C)C)[C@@H](C)O [WT-amylin, reference compound]
[1]; pH 7.4, 25°C
  fibrillization detected (ThT): detect fibrillization
[1]; 20 mM sodium phosphate pH 7.4, 10 μM ThT, 2% DMSO, 25°C, no agitation, fluorescence ex 440/em 490 nm, triplicate
  fibrillization lag time: 120 min
[1]; 20 mM sodium phosphate pH 7.4, 10 μM ThT, 2% DMSO, 25°C, no agitation, triplicate
  fibril elongation rate: 0.010 min⁻¹ and 0.0100 ± 0.0001 min⁻¹
[2]
  aggregate morphology by TEM: formed large amounts of fibrils
[3]
  cell viability: about 45%
[4]
  effect of ionic strength on fibrillization: enhanced with increasing ionic strength

From PMC4630399, “Charge-Based Inhibitors of Amylin Fibrillization and Toxicity” (Journal of Diabetes Research, 2015)
